Measured values reported in US20010010919A1, “OPIOID ANTAGONISTS AND METHODS OF THEIR USE” (priority 1998, published 2001).

Chains of the proteins cited; added tags and fusions are not shown. Lines headed by an entry give the natural chain unless they say otherwise; changes in a name come on top.
UniProt P35370: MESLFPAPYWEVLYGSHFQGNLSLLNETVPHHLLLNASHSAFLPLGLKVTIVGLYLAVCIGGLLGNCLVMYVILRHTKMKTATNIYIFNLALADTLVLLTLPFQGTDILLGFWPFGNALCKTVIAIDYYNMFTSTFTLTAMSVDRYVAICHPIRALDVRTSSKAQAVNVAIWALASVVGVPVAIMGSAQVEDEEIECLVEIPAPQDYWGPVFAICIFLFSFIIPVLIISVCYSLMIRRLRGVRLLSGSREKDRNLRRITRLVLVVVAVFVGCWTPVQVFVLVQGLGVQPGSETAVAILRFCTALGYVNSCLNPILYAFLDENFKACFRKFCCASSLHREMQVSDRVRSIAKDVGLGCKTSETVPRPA

Target: novel mammalian opioid receptor (LC132, OFQR) (Rattus norvegicus, UniProt P35370)
Conditions: membranes of transient (COS-7) and stable (Ltk^−) transfectants, 120 min at 22° C.

CO[C@]12CC[C@@]3(C[C@@H]1C(C)(C)O)[C@H]1Cc4ccc(O)c5c4[C@@]3(CCN1CC1CC1)[C@H]2O5
specific binding of the radioactively-labeled ligand: no specific binding
